The test system of the assay is Nucleic Acid. Briefly: Binding affinity to salmon fish sperm DNA by UV-vis spectrophotometric analysis. In kind it is nucleic-acid assay. Particulars: Salmonidae.

SMILES strings stand for the structures.

As for `COc1ccc2oc3nc4ccccc4c-3c(NCCCN)c2c1`, the K turned out to be 2.79 ×10⁴ L/mol.

These data come from ChEMBL document CHEMBL2151016, “Synthesis and in vitro antiproliferative activity of new 11-aminoalkylamino-substituted chromeno[2,3-b]indoles” (Eur J Med Chem, 2012).
